Values of other authors, collected in patent publication US20130210771A1, “METHODS AND COMPOSITIONS FOR TREATING CANCERS” (IRM LLC, priority 2007, published 2013).

Protein sequences, listed by entry. Tags and fused reporters are not part of them.
UniProt O60674, whole entry, species assumed: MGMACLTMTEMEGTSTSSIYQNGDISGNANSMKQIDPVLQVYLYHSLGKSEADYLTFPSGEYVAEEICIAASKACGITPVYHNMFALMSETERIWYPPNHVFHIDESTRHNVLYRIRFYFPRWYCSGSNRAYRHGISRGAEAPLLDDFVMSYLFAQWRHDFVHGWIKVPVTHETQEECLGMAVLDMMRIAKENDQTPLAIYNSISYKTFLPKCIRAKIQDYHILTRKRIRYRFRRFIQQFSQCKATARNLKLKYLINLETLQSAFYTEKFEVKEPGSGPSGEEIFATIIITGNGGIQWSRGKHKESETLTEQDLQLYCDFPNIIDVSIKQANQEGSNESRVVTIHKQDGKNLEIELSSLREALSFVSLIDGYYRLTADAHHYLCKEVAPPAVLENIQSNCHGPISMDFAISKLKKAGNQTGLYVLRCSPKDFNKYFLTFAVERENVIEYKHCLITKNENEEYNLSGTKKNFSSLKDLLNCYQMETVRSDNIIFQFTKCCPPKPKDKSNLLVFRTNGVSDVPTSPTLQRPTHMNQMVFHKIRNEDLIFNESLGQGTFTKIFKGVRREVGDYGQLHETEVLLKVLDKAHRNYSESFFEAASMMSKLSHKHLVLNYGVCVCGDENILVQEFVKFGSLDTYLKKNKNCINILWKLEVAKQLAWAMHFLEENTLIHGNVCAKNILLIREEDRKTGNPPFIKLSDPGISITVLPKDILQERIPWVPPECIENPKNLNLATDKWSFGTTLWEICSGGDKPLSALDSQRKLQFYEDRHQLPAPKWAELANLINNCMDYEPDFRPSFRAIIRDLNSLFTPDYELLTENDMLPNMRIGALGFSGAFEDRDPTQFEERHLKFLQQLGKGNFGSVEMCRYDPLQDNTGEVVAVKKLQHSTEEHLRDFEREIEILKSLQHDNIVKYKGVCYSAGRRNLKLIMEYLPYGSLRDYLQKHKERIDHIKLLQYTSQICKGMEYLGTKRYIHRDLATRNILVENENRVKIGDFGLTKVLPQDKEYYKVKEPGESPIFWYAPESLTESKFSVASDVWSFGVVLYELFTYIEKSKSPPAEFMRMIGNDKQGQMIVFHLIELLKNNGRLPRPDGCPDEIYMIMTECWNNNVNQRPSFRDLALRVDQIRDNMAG

Target: JAK2 (Homo sapiens, UniProt O60674)
Conditions: cited from earlier work

Compound: Cc1cc(Nc2cc(N3CCN(C)CC3)nc(Sc3ccc(NC(=O)C4CC4)cc3)n2)n[nH]1 [MK-0457]
- inhibition of JAK2: moderate to strong inhibitor
